Target: T1, YTH^YTHDC1 (Homo sapiens, UniProt Q96MU7)
T1 construct: YTHDC1 (amino acids 345-509); His-tag (N); made in house; host or cells: E. coli BL21(DE3)
Experiment: Competitive RNA electrophoretic mobility shift assay (REMSA), YTHDC1
Type: binding
Conditions: 25 nM FAM-m^6A-RNA, N-7 1-200 μM; read-out: IC50, REMSA against YTH^YTHDC1
Description: Competitive REMSA was performed by incubating 20 nM YTH^YTHDF1 or YTH^YTHDC1 with various concentrations of N-7 (1-200 μM) and 25 nM FAM-m^6A-RNA in a buffer containing 10 mM HEPES, 50 mM KCl, 1 mM EDTA, 0.05% Triton-X-100, 5% glycerol and RNase inhibitor, in a final volume of 20 μL. The reaction mixture was incubated at room temperature for 20 minutes, and then loaded onto an 8% polyacrylamide gel containing 0.2% glycerol. Electrophoresis was performed in 0.5×TBE buffer at 90 V and 4° C. for 60 minutes. FAM-m^6A-RNA was detected using the ChemiDoc™ MP imaging system (BIO-RAD) with the fluorescence blotting module.

For `O=C1CC2(CCN(c3ncnc4c3ncn4C3CC(CO)(CO)C3)C2)CN1` (stereo not shown) [N-7], the IC50 was 30 ± 2 µM.

Source: patent publication US20250144104A1, “DISCOVERY OF A NEW INHIBITOR FOR THE YTH DOMAIN-CONTAINING M6A RNA READERS” (The Trustees of Boston College, priority 2023, published 2025)
